Test results published in US20230144211A1, “ANTIFOLATE LINKER-DRUGS AND ANTIBODY-DRUG CONJUGATES” (Byondis B.V., priority 2020, published 2023).

What was measured:
Test in all cases: In vitro cell viability assay (CellTiter-Glo, 6 days)
SK-BR-3 cells = type: cell-based; conditions: ADCs; HER2-positive SK-BR-3 human tumor cell line
Method: (§1) FaDu, BxPC-3, HeLa, MV4-11, and RAJI cell lines were obtained from Deutsche Sammlung von Mikroorganismen und Zellkulturen (Leipzig, Germany). Jurkat NucLight Red cells were obtained from Essen BioScience Inc. (Ann Arbor, Mich., USA). SK-BR-3 and SK-OV-3 cells were cultured in McCoys 5A medium (Lonza; Walkersville, Md., USA) supplemented with 10% v/w Fetal Bovine Serum (FBS), Heat-inactivated (HI) (Gibco-Life Technologies; Carlsbad, Calif.) and 80 U/mL Pen/Strep (Gibco-Life Technologies), at 37° C. in a humidified incubator under 5% CO2 atmosphere. SW-620 cells were similarly maintained in RPMI 1640 medium (Lonza), containing 10% v/w FBS HI and 80 U/mL Pen/Strep. A-549 cells were similarly maintained in F-12K Nutrient Mixture (1×) (Gibco-Life Technologies) media supplemented with 80 U/mL Pen/Strep and 5% v/w FBS, which was Qualified (Q) (Gibco-Life Technologies). BT-474 and AU-565 cells were similarly maintained in RPMI 1640 medium (Lonza), containing 10% v/w FBS, which was Qualified (Q) (Gibco-Life Technologies), and 80 U/mL Pen/Strep. […] Jurkat NucLight Red cells were similarly maintained in RPMI 1640 medium (Lonza), containing 10% v/w FBS HI, 80 U/mL Pen/Strep and 0.5 μg/mL Puromycin (Gibco-Life Technologies). FaDu cells were cultured in EMEM medium (Lonza) supplemented with 10% v/w FBS HI (Gibco-Life Technologies), 1× GlutaMAX (Gibco-Life Technologies), and 80 U/mL Pen/Strep (Gibco-Life Technologies), at 37° C. in a humidified incubator under 5% CO2 atmosphere.
(§2) After an overnight incubation, 10 serial log 10 dilutions of the free drugs were made in DMSO (Sigma-Aldrich). These free drug dose-response curves were 10-times further diluted in complete growth medium. For the ADCs according to the invention 10 serial log 10 dilutions were made in complete growth medium. 10 μL of a composition comprising a free drug or an ADC according to the invention was added to the assay plate (final DMSO content for free drugs was 1%). […] […] Percentage cell survival was calculated by dividing the measured luminescence for each free drug or ADC according to the concentration with the average mean of untreated cells (1% or 0.1% DMSO control (for free drugs) or 100% complete growth medium (for ADCs)) multiplied by 100.
(§3) Curves were fitted by non-linear regression using the sigmoidal dose-response equation with variable slope (four parameters) using curve-fitting software (GraphPad Prism, version 9.4.0 for Windows, GraphPad, San Diego, Calif. or Electronic Laboratory Notebook (ELN) add-in BioAssay, version 19.1.0.0218, Perkin Elmer, Waltham, Mass.). Relative IC50 values were calculated as the concentration that gives a response halfway between bottom and top of the curve, when using a 4-parameter logistic fit. Data were reported as mean IC50 value of at least one experiment performed in duplicate.

AU-565 cells = type: cell-based, human; conditions: antifolate ADCs
Method: as §1, §2, §3

SW-620 cells = type: cell-based, human; conditions: antifolate ADCs, Table 3a; HER2-negative cell line
Method: (§4) Human tumor cell lines SK-BR-3, SW-620, A-549, BT-474, Jurkat Clone E6-1, AU-565, and SK-OV-3 were obtained from American Type Culture Collection (Rockville, Md., USA). FaDu, BxPC-3, HeLa, MV4-11, and RAJI cell lines were obtained from Deutsche Sammlung von Mikroorganismen und Zellkulturen (Leipzig, Germany). Jurkat NucLight Red cells were obtained from Essen BioScience Inc. (Ann Arbor, Mich., USA). SK-BR-3 and SK-OV-3 cells were cultured in McCoys 5A medium (Lonza; Walkersville, Md., USA) supplemented with 10% v/w Fetal Bovine Serum (FBS), Heat-inactivated (HI) (Gibco-Life Technologies; Carlsbad, Calif.) and 80 U/mL Pen/Strep (Gibco-Life Technologies), at 37° C. in a humidified incubator under 5% CO2 atmosphere. SW-620 cells were similarly maintained in RPMI 1640 medium (Lonza), containing 10% v/w FBS HI and 80 U/mL Pen/Strep. A-549 cells were similarly maintained in F-12K Nutrient Mixture (1×) (Gibco-Life Technologies) media supplemented with 80 U/mL Pen/Strep and 5% v/w FBS, which was Qualified (Q) (Gibco-Life Technologies). BT-474 and AU-565 cells were similarly maintained in RPMI 1640 medium (Lonza), containing 10% v/w FBS, which was Qualified (Q) (Gibco-Life Technologies), and 80 U/mL Pen/Strep. Jurkat Clone E6-1, BxPC-3, HeLa, MV4-11, and RAJI cells were similarly maintained in RPMI 1640 medium (Lonza), containing 10% v/w FBS HI and 80 U/mL Pen/Strep. Jurkat NucLight Red cells were similarly maintained in RPMI 1640 medium (Lonza), containing 10% v/w FBS HI, 80 U/mL Pen/Strep and 0.5 μg/mL Puromycin (Gibco-Life Technologies). FaDu cells were cultured in EMEM medium (Lonza) supplemented with 10% v/w FBS HI (Gibco-Life Technologies), 1× GlutaMAX (Gibco-Life Technologies), and 80 U/mL Pen/Strep (Gibco-Life Technologies), at 37° C. in a humidified incubator under 5% CO2 atmosphere.
(§5) Cells in complete growth medium were plated in 96-well plates (90 μL/well) and incubated at 37° C., 5% CO2 at the following cell densities: 6500 SK-BR-3, 4000 SW-620, 2500 A-549, 10000 BT-474, 3000 Jurkat Clone E6-1, 5000 AU-565, 1250 FaDu, 1250 BxPC-3, 1000 HeLa, 7500 MV4-11, 1000 RAJI, 3000 Jurkat NucLight Red, and 4000 SK-OV-3 cells per well. After an overnight incubation, 10 serial log 10 dilutions of the free drugs were made in DMSO (Sigma-Aldrich). These free drug dose-response curves were 10-times further diluted in complete growth medium. For the ADCs according to the invention 10 serial log 10 dilutions were made in complete growth medium. 10 μL of a composition comprising a free drug or an ADC according to the invention was added to the assay plate (final DMSO content for free drugs was 1%). […] Cell viability was assessed after 6 days using a luminescent assay kit (CellTiter-Glo™ (CTG), Promega Corporation) according to the manufacturer's instructions. Percentage cell survival was calculated by dividing the measured luminescence for each free drug or ADC according to the concentration with the average mean of untreated cells (1% or 0.1% DMSO control (for free drugs) or 100% complete growth medium (for ADCs)) multiplied by 100.
as §3

[1] = test system: Jurkat NucLight Red cells; type: cell-based, human; conditions: antifolate ADCs, Table 3d; for Jurkat NucLight Red cells IC50 (μg/mL): # no full dose-response curve; for Jurkat NucLight Red cells Efficacy (%): from minimum % viability at highest concentration
Method: as §4, §5, §3

FaDu cells = type: cell-based, human; conditions: antifolate ADCs, Table 3c; # no full dose-response curve
Method: as §1, §2, §3

BxPC-3 cells = type: cell-based, human; conditions: antifolate ADCs, Table 3c; # no full dose-response curve
Method: as §1, §2, §3

SK-OV-3 cells = type: cell-based, human; conditions: antifolate ADCs
Method: FaDu, BxPC-3, HeLa, MV4-11, and RAJI cell lines were obtained from Deutsche Sammlung von Mikroorganismen und Zellkulturen (Leipzig, Germany). Jurkat NucLight Red cells were obtained from Essen BioScience Inc. (Ann Arbor, Mich., USA). SK-BR-3 and SK-OV-3 cells were cultured in McCoys 5A medium (Lonza; Walkersville, Md., USA) supplemented with 10% v/w Fetal Bovine Serum (FBS), Heat-inactivated (HI) (Gibco-Life Technologies; Carlsbad, Calif.) and 80 U/mL Pen/Strep (Gibco-Life Technologies), at 37° C. in a humidified incubator under 5% CO2 atmosphere. SW-620 cells were similarly maintained in RPMI 1640 medium (Lonza), containing 10% v/w FBS HI and 80 U/mL Pen/Strep. A-549 cells were similarly maintained in F-12K Nutrient Mixture (1×) (Gibco-Life Technologies) media supplemented with 80 U/mL Pen/Strep and 5% v/w FBS, which was Qualified (Q) (Gibco-Life Technologies). BT-474 and AU-565 cells were similarly maintained in RPMI 1640 medium (Lonza), containing 10% v/w FBS, which was Qualified (Q) (Gibco-Life Technologies), and 80 U/mL Pen/Strep. […]
After an overnight incubation, 10 serial log 10 dilutions of the free drugs were made in DMSO (Sigma-Aldrich). […] Cell viability was assessed after 6 days using a luminescent assay kit (CellTiter-Glo™ (CTG), Promega Corporation) according to the manufacturer's instructions. Percentage cell survival was calculated by dividing the measured luminescence for each free drug or ADC according to the concentration with the average mean of untreated cells (1% or 0.1% DMSO control (for free drugs) or 100% complete growth medium (for ADCs)) multiplied by 100.
as §3, with “Data were reported as mean IC50 value of at least one experiment performed in duplicate.” left out

BT-474 cells = type: cell-based, human; conditions: antifolate ADCs, Table 3c
Method: as §1, §2, §3

| Substance | cytotoxicity in SK-BR-3 cells, comparison in words (SK-BR-3 cells) | SW-620 cells Efficacy (%) (SW-620 cells) | SW-620 cells IC50 (SW-620 cells) [µg/mL] | other results |
| --- | --- | --- | --- | --- |
| Trastuzumab conjugate DAR8-XT114 wild-type conjugation | more active |  |  | AU-565 cells IC50 (AU-565 cells; Table 3b, later experiment, direct comparison between DAR8-XX23 and DAR8-XT114): 0.008 µg/mL |
| Trastuzumab conjugate DAR8-XT54 wild-type conjugation |  | 0 | >10 |  |
| Trastuzumab conjugate DAR8-XT123 wild-type conjugation | more active |  |  | Jurkat NucLight Red cells IC50 (μg/mL) [1]: >10^# μg/mL; Jurkat NucLight Red cells Efficacy (%) [1]: 4%; AU-565 cells IC50 (AU-565 cells; Table 3c): 0.010 µg/mL; FaDu cells IC50 (FaDu cells): 6.639 µg/mL; BxPC-3 cells IC50 (μg/mL) (BxPC-3 cells): >10^# μg/mL |
| Trastuzumab conjugate DAR8-XS23 wild-type conjugation |  | 0 | >10 | SK-OV-3 cells IC50 μg/mL (SK-OV-3 cells; Table 3a, # no full dose-response curve): ~1.137^# μg/mL |
| Trastuzumab conjugate DAR8-XJ9 wild-type conjugation |  |  |  | AU-565 cells IC50 (AU-565 cells; Table 3b, $ steep hillslope): 0.032 µg/mL |
| Trastuzumab conjugate DAR8-XT16 wild-type conjugation |  | 0 | >10 |  |
| trastuzumab conjugates with XT162 | more active |  |  |  |
| Trastuzumab conjugate DAR8-XR162 wild-type conjugation |  |  |  | Jurkat NucLight Red cells IC50 (μg/mL) [1]: >10^# μg/mL; Jurkat NucLight Red cells Efficacy (%) [1]: 0%; AU-565 cells IC50 (AU-565 cells; Table 3c): 0.018 µg/mL; FaDu cells IC50 (μg/mL) (FaDu cells): >10^# μg/mL; BxPC-3 cells IC50 (μg/mL) (BxPC-3 cells): >10^# μg/mL |
| Trastuzumab conjugate DAR8-XT94 wild-type conjugation | more active |  |  | AU-565 cells IC50 (μg/mL) (AU-565 cells; Table 3b, $ steep hillslope): ~0.027^$ μg/mL |
| Trastuzumab conjugate DAR8-XT41 wild-type conjugation | more active | 0 | >10 |  |
| Trastuzumab conjugate DAR8-XX19 wild-type conjugation | more active |  |  |  |
| Trastuzumab conjugate DAR8-XG2 wild-type conjugation | more active |  |  | Jurkat NucLight Red cells IC50 (μg/mL) [1]: >10^# μg/mL; Jurkat NucLight Red cells Efficacy (%) [1]: 5%; BT-474 cells IC50 (BT-474 cells): 0.036 µg/mL; AU-565 cells IC50 (AU-565 cells; Table 3c): 0.015 µg/mL |
| Trastuzumab conjugate DAR2-XT17 wild-type conjugation |  | 0 | >10 |  |
| Trastuzumab conjugate DAR8-XT97 wild-type conjugation |  |  |  | AU-565 cells IC50 (AU-565 cells; Table 3b, $ steep hillslope): 0.042 µg/mL |
| Trastuzumab conjugate DAR8-XX23 wild-type conjugation | more active |  |  |  |
| Trastuzumab conjugate DAR8-XT100 wild-type conjugation |  |  |  | AU-565 cells IC50 (AU-565 cells; Table 3b, $ steep hillslope): 0.024 µg/mL |
| Trastuzumab conjugate DAR8-XJ21 wild-type conjugation |  |  |  | SK-OV-3 cells Efficacy (%) (SK-OV-3 cells; Table 3b): 34%; SK-OV-3 cells IC50 (SK-OV-3 cells; Table 3b): 0.375 µg/mL |
| Trastuzumab conjugate DAR8-XT31/XT32 wild-type conjugation |  | 0 | >10 |  |
| Trastuzumab conjugate DAR8-XR16 wild-type conjugation | more active |  |  |  |
| Trastuzumab conjugate DAR4-XT17 wild-type conjugation |  | 0 | >10 |  |
| Trastuzumab conjugate DAR8-XR12 wild-type conjugation | somewhat less active |  |  |  |
| Trastuzumab conjugate DAR8-XT46 wild-type conjugation | somewhat less active | 0 | >10 |  |
| Trastuzumab conjugate DAR8-XR4 wild-type conjugation |  | 0 | >10 |  |
